Source: PMC5845004, “Novel (p)ppGpp Binding and Metabolizing Proteins of Escherichia coli” (mBio, 2018)

Amino acid sequences for entries named in this document (tags omitted). A change or cut given only in a name is not applied to a line headed by its entry.
UniProt P0A9M5: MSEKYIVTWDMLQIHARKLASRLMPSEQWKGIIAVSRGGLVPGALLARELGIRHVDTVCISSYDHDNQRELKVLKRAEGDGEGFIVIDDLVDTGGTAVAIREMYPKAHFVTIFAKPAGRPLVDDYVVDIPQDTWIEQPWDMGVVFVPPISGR

Target: Gpt (Escherichia coli, UniProt P0A9M5)
Experiment: DRaCALA competition assay, Gpt
Format: binding, E. coli
Conditions: 20 µM Gpt, 2 nM hot ppGpp, 100 µM cold competitor

O=P(O)(O)OC[C@H]1OC(OP(=O)(O)OP(=O)(O)O)[C@H](O)[C@@H]1O (stereo partly shown) [PRPP, phosphoribosyl pyrophosphate]
competition for bound [α-32P]ppGpp on Gpt: partially outcompete
